Laboratory results from ChEMBL document CHEMBL1147428, “A new class of potent non-imidazole H(3) antagonists: 2-aminoethylbenzofurans” (Bioorg Med Chem Lett, 2004).

Protein sequences, listed by entry. Tags and fused reporters are not part of them. Lines headed by an entry give the natural chain unless they say otherwise; changes in a name come on top.
UniProt Q9QYN8: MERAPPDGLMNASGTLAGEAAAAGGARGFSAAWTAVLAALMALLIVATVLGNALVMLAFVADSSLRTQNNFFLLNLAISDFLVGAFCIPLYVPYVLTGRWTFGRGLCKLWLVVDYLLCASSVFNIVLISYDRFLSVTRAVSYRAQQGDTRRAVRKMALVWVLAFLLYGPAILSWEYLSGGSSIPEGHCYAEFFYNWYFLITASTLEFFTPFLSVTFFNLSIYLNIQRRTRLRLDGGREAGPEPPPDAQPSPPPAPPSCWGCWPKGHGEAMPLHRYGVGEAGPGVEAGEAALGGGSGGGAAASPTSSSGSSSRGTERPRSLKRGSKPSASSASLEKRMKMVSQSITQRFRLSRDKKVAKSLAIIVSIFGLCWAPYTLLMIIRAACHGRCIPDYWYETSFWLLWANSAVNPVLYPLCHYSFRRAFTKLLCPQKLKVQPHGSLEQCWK

Target: Histamine H3 receptor (Rattus norvegicus, UniProt Q9QYN8)
Assay: Binding potency was determined by displacement of [3H]N-alpha-methyl histamine from histamine H3 receptor of rat cortical membranes
Assay type: cell membranes, Membrane

Row | Ki | SMILES
1 | 6.5 nM | CC1CCCN1CCc1cc2cc(-c3ccc(C#N)cc3)ccc2o1 (configuration not stated)
2 | 3.22 nM | C[C@@H]1CCCN1CCc1cc2cc(-c3ccc(C#N)cc3)ccc2o1
